Only some compounds are listed: those with a hit (about 0.94% of all), similar ones and a draw of the others.
PKA-R2B act = activates the human PKA-R2B holoenzyme complex. P22694+P31323. PKA-R2B holoenzyme dissociation, Cy5-IP20 fluorescence polarization; R2B truncated from residue 108, S112A mutant; 0% DMSO only, 100% 113 µM cGMP. activation, % at 11.4 µM. actives 0.079% (n = 340,000);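 active = activation above a cutoff set at the mean over all compounds plus 3 SD, cut at about 18% in these data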;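 note: higher means more holoenzyme dissociation and a rise in polarization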
Yeast UUG start = modulators of start codon recognition fidelity in yeast; AID 602363; activity score, % at 18.7 µM; S. cerevisiae UUG-firefly luciferase reporter, luminescence/redox ratio; 0.13% of 350,000 active;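 active = replicate mean at a twofold rise or more, about +100% in these data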;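 note: firefly luciferase made from a UUG start codon reports start codon fidelity; reporter light over untreated wells divided by growth signal over untreated wells; some hits fall short of that in this replicate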
ABCB6 inh MLPCN = inhibitors of human ABC transporter ABCB6. AID 602162. actives 0.19% (n = 360,000). K562-ABCB6 porphyrin accumulation, flow cytometry, 1 h; stronger effect = lower value. Q9NP58. fluorescence ratio to DMSO, % at 10 µM;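 active = fluorescence ratio to DMSO below 75%, the collection mean minus 3 SD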;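 note: signal is porphyrin accumulated inside mitochondria; 100% equals median channel fluorescence of DMSO control wells; lower ratio means ABCB6 inhibition with less porphyrin fluorescence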
PKA-R1A activ = activates the PKA-R1A holoenzyme complex; P00514+P68181; PKA-R1A dissociation, Cy5-IP20 fluorescence polarization; scaled: DMSO 0%, 113 µM cGMP 100%; activation, % at 11.4 µM; actives 0.083% (n = 340,000);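 active = percent activation above the mean of all tested compounds plus 3 SD, cut at about 19% in these data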;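 note: higher means more PKAc released from R1A so a rise in polarization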
pCIP destab = lowers stability of the mouse p/CIP coactivator protein; Q05BA5; decrease of EGFP signal, % at 10 µM; F442A p/CIP-EGFP cells, EGFP fluorescence, 16 h; actives 0.01% (n = 290,000);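 active = EGFP signal decrease of at least 30% at 10 µM or well 3 SD below plate mean, unless failing retest; inactive = the rest, including hits failing retest or dose response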
Exocytosis inh = blocks lytic granule exocytosis; TALL-104 LAMP-1 surface exposure, flow cytometry; cells stimulated with thapsigargin and PMA; inhibition, % at 10 µM; actives 0.66% (n = 360,000); AID 651702;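 active = inhibition above about 55%, limit read from the data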
Granule exo CP1 = lytic granule exocytosis inhibition; shares compounds with Exocytosis inh; TALL-104 cells, LAMP-1 externalization, flow cytometry; stimulated with PMA plus thapsigargin; inhibition, % at 10 µM; actives 11% (n = 1,500); in the data active = inhibition above about 60%;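 note: 0% = stimulated vehicle wells and 100% = unstimulated wells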
The depositor's hits bear a star.

`CCc1ccc(-c2cc(C)no2)cc1S(=O)(=O)N1CCOc2ccccc21` gave PKA-R2B act 8, Yeast UUG start 8, ABCB6 inh MLPCN 94, PKA-R1A activ -6, pCIP destab -1, Exocytosis inh 89* and Granule exo CP1 -2.
For COc1ccc(-c2cc(C)no2)cc1S(=O)(=O)N1CCOc2ccc(C)cc21 the results were PKA-R2B act -13, Yeast UUG start -12, ABCB6 inh MLPCN 100, PKA-R1A activ -2, pCIP destab 7 and Exocytosis inh -3.
O=C(C[C@@H]1CC[C@H]2[C@@H](COC[C@H](O)CN2Cc2cc(F)ccc2F)O1)NCc1ccccc1 was read as Yeast UUG start -4.
Cc1ccc(NC(=O)CN2C(=O)N/C(=C/c3ccc(C)o3)C2=O)cc1 was read as PKA-R2B act -9, Yeast UUG start -14, ABCB6 inh MLPCN 105, PKA-R1A activ -16, pCIP destab -6 and Exocytosis inh 19.
Screening Cc1cccc(NC(=O)CN2C(=O)N/C(=C/c3ccc(C)o3)C2=O)c1 returned PKA-R2B act -3, Yeast UUG start -26, ABCB6 inh MLPCN 103, PKA-R1A activ -1, pCIP destab -4, Exocytosis inh 85* and Granule exo CP1 -12.
For Nc1c(Cl)cc(-c2csc(NC(CO)c3nc4ccccc4n3CCOCCO)n2)cc1Cl (stereo not drawn) the results were PKA-R2B act 0, Yeast UUG start -15, ABCB6 inh MLPCN 97, PKA-R1A activ -10, Exocytosis inh 70* and Granule exo CP1 -1.
Screening CN(CCOc1ccccc1)CC(=O)Nc1ccc([N+](=O)[O-])cc1Cl returned PKA-R2B act 0, ABCB6 inh MLPCN 98, PKA-R1A activ -18, pCIP destab 5, Exocytosis inh 73* and Granule exo CP1 0.
For CN(CC(=O)Nc1ccccc1Cl)C(=O)COC(=O)c1ccc([N+](=O)[O-])cc1Cl the results were PKA-R2B act 2, Yeast UUG start 4, ABCB6 inh MLPCN 101, PKA-R1A activ -9 and Exocytosis inh 0.
`C[C@@H]1CN([C@H](C)CO)C(=O)c2cc(/C=C/c3ccccc3)cnc2O[C@H]1CN(C)Cc1ccncc1` gave Yeast UUG start -11.
`CN(CCCC1CCCC1)C(=O)c1cc(COc2c(F)cccc2F)on1` gave PKA-R2B act -3, Yeast UUG start -11, ABCB6 inh MLPCN 100, PKA-R1A activ 12, pCIP destab -7 and Exocytosis inh 8.
Screening CN(CCCC1CCCC1)C(=O)c1cc(COc2ccc(F)c(F)c2)on1 returned PKA-R2B act -4, Yeast UUG start 4, ABCB6 inh MLPCN 100, PKA-R1A activ -6, pCIP destab 10, Exocytosis inh 68* and Granule exo CP1 -11.
`COC(=O)Nc1ccc(S(=O)(=O)NC2CCS(=O)(=O)C2)cc1` (stereo not drawn) gave PKA-R2B act -6, Yeast UUG start -10, ABCB6 inh MLPCN 106, PKA-R1A activ 3, pCIP destab 3, Exocytosis inh 64* and Granule exo CP1 -14.
Screening CCCCc1ccc(S(=O)(=O)NC2CCS(=O)(=O)C2)cc1 (stereo not drawn) returned PKA-R2B act 4, ABCB6 inh MLPCN 94, PKA-R1A activ 5, pCIP destab -4 and Exocytosis inh -9.
For Cc1ccc(S(=O)(=O)N(C)C[C@@H]2Oc3ccc(NC(=O)Nc4ccc5c(c4)OCO5)cc3CC(=O)N([C@@H](C)CO)C[C@H]2C)cc1 the results were Yeast UUG start -11.
Clc1cccc(C2Nc3cccc4cccc(c34)N2)c1Cl was read as PKA-R2B act 4, Yeast UUG start -23, ABCB6 inh MLPCN 102, PKA-R1A activ 7, pCIP destab -10, Exocytosis inh 93* and Granule exo CP1 -2.

Three entries from above, ordered by molecular weight, falling.
For CN(CC(=O)Nc1ccccc1Cl)C(=O)COC(=O)c1ccc([N+](=O)[O-])cc1Cl the results were PKA-R2B act 2, Yeast UUG start 4, ABCB6 inh MLPCN 101, PKA-R1A activ -9 and Exocytosis inh 0.
`CCc1ccc(-c2cc(C)no2)cc1S(=O)(=O)N1CCOc2ccccc21` gave PKA-R2B act 8, Yeast UUG start 8, ABCB6 inh MLPCN 94, PKA-R1A activ -6, pCIP destab -1, Exocytosis inh 89* and Granule exo CP1 -2.
Cc1ccc(NC(=O)CN2C(=O)N/C(=C/c3ccc(C)o3)C2=O)cc1 was read as PKA-R2B act -9, Yeast UUG start -14, ABCB6 inh MLPCN 105, PKA-R1A activ -16, pCIP destab -6 and Exocytosis inh 19.

(cont.)
Cc1ccc2c(CN(C)Cc3ccc(Cl)cc3Cl)cc(=O)oc2c1 was read as PKA-R2B act -9, Yeast UUG start -11, ABCB6 inh MLPCN 98, PKA-R1A activ 0, pCIP destab -3, Exocytosis inh 67* and Granule exo CP1 -9.
`Cc1ccc2nc3c(c(Nc4ccc(O)cc4)c2c1)CCC3` gave PKA-R2B act -2, Yeast UUG start -17, ABCB6 inh MLPCN 94, PKA-R1A activ 0, pCIP destab -10, Exocytosis inh 61* and Granule exo CP1 -11.
For CC(C)(C)c1cc(C(=O)Nc2ccc(F)cc2)n(Cc2ccc(F)cc2)n1 the results were Yeast UUG start -3, ABCB6 inh MLPCN 96, pCIP destab -1, Exocytosis inh 67* and Granule exo CP1 3.
For CCCNC(=O)N1C[C@H](O)COC[C@H]2O[C@H](CC(=O)N[C@H]3CCN(Cc4ccccc4)C3)CC[C@@H]21 the results were Yeast UUG start -6.
For CCC(=O)N(C)C[C@@H]1Oc2ncc(C#Cc3ccccc3)cc2C(=O)N([C@H](C)CO)C[C@@H]1C the results were Yeast UUG start 5.
Screening Cc1ccc(C)c(N2CCN(C(=O)c3ccc(CS(=O)Cc4cccc(Cl)c4)o3)CC2)c1 (stereo not drawn) returned PKA-R2B act -10, Yeast UUG start -15, ABCB6 inh MLPCN 92, PKA-R1A activ 11, pCIP destab 4, Exocytosis inh 58* and Granule exo CP1 -5.
`COc1ccc(NC(=O)N(C)C[C@@H]2Oc3ccc(NS(=O)(=O)c4ccccc4)cc3C(=O)N([C@@H](C)CO)C[C@@H]2C)cc1` gave Yeast UUG start -4.
COc1ccc(COc2ccc3c(C)cc(=O)oc3c2)cc1 was read as PKA-R2B act -8, Yeast UUG start 4, ABCB6 inh MLPCN 92, PKA-R1A activ -7, pCIP destab -15, Exocytosis inh 75* and Granule exo CP1 -4.
Screening CCCNC(=O)C[C@@H]1C[C@H]2c3cc(NC(=O)Nc4ccccc4)ccc3O[C@H]2[C@H](CO)O1 returned Yeast UUG start 8.
For CC(C)C(NS(=O)(=O)c1cccc(C(F)(F)F)c1)C(=O)N1CCc2ccccc2C1 (stereo not drawn) the results were PKA-R2B act -2, Yeast UUG start 20, ABCB6 inh MLPCN 100, PKA-R1A activ -8, pCIP destab 3, Exocytosis inh 76* and Granule exo CP1 -5.
CC(C)C(NS(=O)(=O)c1ccccc1F)C(=O)N1CCc2ccccc2C1 (stereo not drawn) was read as PKA-R2B act -2, Yeast UUG start -7, ABCB6 inh MLPCN 90, PKA-R1A activ -8, pCIP destab -19 and Exocytosis inh -5.

Screening results from PubChem BioAssay.
